Experimental data from ChEMBL document CHEMBL1126080, “Selective reversible and irreversible ligands for the kappa opioid receptor” (1992).

By UniProt entry, the sequences of proteins in these tests, tags left out. Where a name states a change or a piece, a line headed by the entry shows the natural chain unless it says otherwise.
UniProt P97266, whole entry, looked up: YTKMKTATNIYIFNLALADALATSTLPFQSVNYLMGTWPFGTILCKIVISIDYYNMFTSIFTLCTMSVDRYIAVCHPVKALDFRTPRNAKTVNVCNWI
UniProt P41143, whole entry, looked up: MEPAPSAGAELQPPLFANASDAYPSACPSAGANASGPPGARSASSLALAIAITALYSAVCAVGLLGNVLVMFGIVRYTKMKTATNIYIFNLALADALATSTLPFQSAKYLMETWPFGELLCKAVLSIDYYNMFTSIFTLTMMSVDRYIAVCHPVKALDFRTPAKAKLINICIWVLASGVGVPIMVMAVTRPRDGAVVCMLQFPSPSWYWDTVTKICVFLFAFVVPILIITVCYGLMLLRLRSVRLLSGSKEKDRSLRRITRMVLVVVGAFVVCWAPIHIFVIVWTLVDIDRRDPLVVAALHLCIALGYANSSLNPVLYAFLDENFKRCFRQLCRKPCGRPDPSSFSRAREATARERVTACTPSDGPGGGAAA
UniProt P41144: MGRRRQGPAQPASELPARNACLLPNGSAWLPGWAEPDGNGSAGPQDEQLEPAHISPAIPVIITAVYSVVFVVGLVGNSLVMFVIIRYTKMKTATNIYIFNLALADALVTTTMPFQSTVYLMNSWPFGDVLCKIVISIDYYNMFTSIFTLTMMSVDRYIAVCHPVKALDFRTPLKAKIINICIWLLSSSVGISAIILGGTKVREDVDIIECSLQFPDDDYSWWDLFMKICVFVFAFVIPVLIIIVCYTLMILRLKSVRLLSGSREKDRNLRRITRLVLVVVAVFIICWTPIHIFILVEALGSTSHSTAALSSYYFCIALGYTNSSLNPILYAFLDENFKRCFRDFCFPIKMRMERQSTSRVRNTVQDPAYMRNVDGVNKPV

Tests used:
Parameters in all cases: scale not given: the % may be the effect or the level left
[1] = molecular target: Mu-type opioid receptor (Cavia porcellus) (UniProt P97266); test: Irreversible inhibition of [3H][3H]ethylketocyclazocine binding to mu opioid receptors of guinea pig brain membranes on pre-incubation with 10E-6 M of the compound.; conditions: Membrane
[2] = molecular target: Mu-type opioid receptor (Cavia porcellus) (UniProt P97266); test: Irreversible inhibition of [3H][3H]ethylketocyclazocine binding to mu opioid receptors of guinea pig brain membranes on pre-incubation with 10E-5 M of the compound; conditions: Membrane
[3] = molecular target: Delta-type opioid receptor (Homo sapiens) (UniProt P41143); test: Irreversible inhibition of [3H]-DADLE binding to delta opioid receptors of guinea pig brain membranes on pre-incubation with 10E-7 M of the compound.; conditions: Cavia porcellus, Membrane
[4] = molecular target: Kappa-type opioid receptor (Cavia porcellus) (UniProt P41144); test: Irreversible inhibition of [3H]-naloxone binding to opioid receptor kappa of guinea pig brain membranes on pre-incubation with 10E-6 M of the compound.; conditions: Membrane
[5] = molecular target: Mu-type opioid receptor (Cavia porcellus) (UniProt P97266); test: Irreversible inhibition of [3H][3H]ethylketocyclazocine binding to mu opioid receptors of guinea pig brain membranes on pre-incubation with 10E-4 M of the compound; conditions: Membrane
[6] = molecular target: Mu-type opioid receptor (Cavia porcellus) (UniProt P97266); test: Irreversible inhibition of [3H][3H]ethylketocyclazocine binding to mu opioid receptors of guinea pig brain membranes on preincubation with 10E-7 M of the compound.; conditions: Membrane
[7] = molecular target: Kappa-type opioid receptor (Cavia porcellus) (UniProt P41144); test: Irreversible inhibition of [3H]naloxone binding to opioid receptor kappa of guinea pig brain membranes on preincubation with 10E-4 M of the compound; conditions: Membrane
[8] = molecular target: Delta-type opioid receptor (Homo sapiens) (UniProt P41143); test: Irreversible inhibition of [3H]-DADLE binding to delta opioid receptors of guinea pig brain membranes on pre-incubation with 10E-5 M of the compound.; conditions: Cavia porcellus, Membrane
[9] = molecular target: Kappa-type opioid receptor (Cavia porcellus) (UniProt P41144); test: Irreversible inhibition of [3H]-naloxone binding to opioid receptor kappa of guinea pig brain membranes on preincubation with 10E-7 M of the compound.; conditions: Membrane
[10] = molecular target: Delta-type opioid receptor (Homo sapiens) (UniProt P41143); test: Irreversible inhibition of [3H]DADLE binding to delta opioid receptors of guinea pig brain membranes on preincubation with 10E-6 M of the compound.; conditions: Cavia porcellus, Membrane
[11] = molecular target: Kappa-type opioid receptor (Cavia porcellus) (UniProt P41144); test: Irreversible inhibition of [3H]naloxone binding to opioid receptor kappa of guinea pig brain membranes on preincubation with 10E-5 M of the compound; conditions: Membrane
[12] = molecular target: Delta-type opioid receptor (Homo sapiens) (UniProt P41143); test: Irreversible inhibition of [3H]DADLE binding to delta opioid receptors of guinea pig brain membranes on preincubation with 10E-4 M of the compound; conditions: Cavia porcellus, Membrane
[13] = molecular target: Mu-type opioid receptor (Cavia porcellus) (UniProt P97266); test: Irreversible inhibition of [3H][3H]ethylketocyclazocine binding to mu opioid receptors of guinea pig brain membranes on pre-incubation with 10E-5 M of the compound.; conditions: Membrane
[14] = molecular target: Delta-type opioid receptor (Homo sapiens) (UniProt P41143); test: Irreversible inhibition of [3H]-DADLE binding to delta opioid receptors of guinea pig brain membranes on preincubation with 10E-4 M of the compound.; conditions: Cavia porcellus, Membrane
[15] = molecular target: Kappa-type opioid receptor (Cavia porcellus) (UniProt P41144); test: Irreversible inhibition of [3H]naloxone binding to opioid receptor kappa of guinea pig brain membranes on preincubation with 10E-5 M of the compound.; conditions: Membrane
[16] = molecular target: Kappa-type opioid receptor (Cavia porcellus) (UniProt P41144); test: Irreversible inhibition of [3H]naloxone binding to kopioid receptor kappa of guinea pig brain membranes on preincubation with 10E-4 M of the compound; conditions: Membrane
[17] = molecular target: Kappa-type opioid receptor (Cavia porcellus) (UniProt P41144); test: Irreversible inhibition of [3H]-naloxone binding to opioid receptor kappa of guinea pig brain membranes on pre-incubation with 10E-6 M of the compound; conditions: Membrane
[18] = molecular target: Kappa-type opioid receptor (Cavia porcellus) (UniProt P41144); test: Irreversible inhibition of [3H]naloxone binding to kopioid receptor kappa of guinea pig brain membranes on preincubation with 10E-5 M of the compound; conditions: Membrane
[19] = molecular target: Kappa-type opioid receptor (Cavia porcellus) (UniProt P41144); test: Irreversible inhibition of [3H]-naloxone binding to opioid receptor kappa of guinea pig brain membranes on preincubation with 5*10e-7 M of the compound; conditions: Membrane

Structure (SMILES) | Control [1] [%] | Control [2] [%] | Control [3] [%] | Control [4] [%] | Control [5] [%] | Control [6] [%] | Control [7] [%] | Control [8] [%] | Control [9] [%] | Control [10] [%] | Control [11] [%] | Control [12] [%] | Control [13] [%] | Control [14] [%] | Control [15] [%] | Control [16] [%] | Control [17] [%] | Control [18] [%] | Control [19] [%]
C=C1C[C@@]2(CC[C@H](N3CCCC3)[C@@H](N(C)C(=O)Cc3ccc(Cl)c(Cl)c3)C2)OC1=O | 83 | 64 | 95 | 74 | 36 | 89 | 93 | 81 | 86 | 103 | 44 | 51 |  |  |  |  |  |  | 
CN(C(=O)Cc1ccc(Cl)c(Cl)c1)C1CCCCC1N1CCCC1 (stereo unspecified) | 91 |  |  | 109 | 78 |  |  | 91 |  |  |  |  | 101 | 96 | 38 | 105 |  |  | 
C=C1C[C@]2(CC[C@H](N3CCCC3)[C@@H](N(C)C(=O)Cc3ccc(Cl)c(Cl)c3)C2)OC1=O | 100 | 73 |  |  | 24 |  | 49 | 97 | 92 | 100 |  | 66 |  |  |  |  | 13 | 73 | 69
